Key:
[1] = system: oocytes of preovulatory follicles; experiment: Preovulatory follicle culture, GVBD of oocytes; assay type: cell-based, mouse; details: cultured preovulatory follicles, 6 h, 5 μg/ml LH or BDNF
Protocol: Follicle Cultures. Preovulatory follicles were excised from mouse ovaries 48 h after PMSG treatment and cultured to examine nuclear maturation of oocytes (Kawamura et al. (2004) Proc. Natl. Acad. Sci. USA 101, 7323-7328). Follicles (20-30 per vial) were cultured with or without recombinant human BDNF (Pepro-Tech, Rocky Hill, N.J.) or 5 μg/ml LH (Organon) in Leibovitz's L-15 medium (Invitrogen). The vials were flushed at the start of the culture with O2/N2 (at a 1:1 ratio), sealed, and cultured at 37° C. with gentle shaking for 6 h. After culture, cumulus oocyte complexes (COCs) were isolated, and, after cumulus cells were removed, oocytes were examined for the occurrence of GVBD.

[2] = system: ovarian BDNF; experiment: Gonadotropin regulation of ovarian BDNF expression (DNA microarray, ELISA); assay type: in vivo, mouse; details: PMSG-primed mice
Protocol: Animals. Immature female B6D2F1 mice were obtained from Charles River Laboratories. Animal care was consistent with institutional and National Institute of Health guidelines. Mice at 22 days of age were treated with 7.5 units of pregnant mare serum gonadotropin (PMSG; Calbiochem), followed by treatment with 10 units of hCG (Sigma) 48 h later so as to simulate follicle maturation and ovulation.
DNA Microarray Analyses. Mice (n=108) were injected at 21 days of age with Humegon (7.5 units per animal, Organon) containing follicle-stimulating hormone and LH in order to stimulate follicular growth. Forty-eight hours later, some animals were treated i.p. with Pregnyl (5 units per animal) containing LH activity to induce ovulation. Ovaries were dissected from animals killed bi-hourly after Humegon treatment (three mice per group) and hourly after Pregnyl treatment (one mouse per group) for RNA extraction (TRIzol, Invitrogen). Aliquots of 6 μg of total RNA at 1 μg/μl for one-chipset hybridization were stored at −80° C. Samples were hybridized to the Affymetrix mouse MGU74v2 arrays A, B, and C according to standard Affymetrix protocols. The pooled follicular phase samples were hybridized in duplicate, and the postPregnyl samples were single determinations. […]

| Substance | induction of GVBD in oocytes [1] | time of peak of ovarian BDNF antigen levels [2] [h] | time to increase of ovarian BDNF antigen levels [2] [h] |
| --- | --- | --- | --- |
| LH: luteinizing hormone (Organon), 5 μg/ml in follicle culture | induced | – | – |
| hCG: human chorionic gonadotropin (Sigma), 10 units to induce ovulation | – | 7 | ≤ 3 |
